Experimental data reported in patent publication US20240424107A1, “PREPARATION OF SITE-SPECIFIC POLYPEPTIDE CONJUGATES” (POSTECH RESEARCH AND BUSINESS DEVELOPMENT FOUNDATION, priority 2023, published 2024).

System: SKBR-3 cells
Experiment: Real-time target cell killing, xCELLigence RTCA with effector PBMCs
Details: SKBR-3 with effector PBMCs, 20 nM, 10 nM, 5 nM, up to 96 h, FIGS. 12 to 14

Trastuzumab-DNA-DM1
cytolysis over time / cytotoxic effect (in words): high cytolysis even at low concentrations
